Test results taken from patent publication US8748458B2, “Scriptaid isosteres and their use in therapy” (Karus Therapeutics Limited, priority 2009, dated 2014).

Protein sequences, listed by entry. Tags and fused reporters are not part of them.
UniProt Q13547, whole entry, species assumed: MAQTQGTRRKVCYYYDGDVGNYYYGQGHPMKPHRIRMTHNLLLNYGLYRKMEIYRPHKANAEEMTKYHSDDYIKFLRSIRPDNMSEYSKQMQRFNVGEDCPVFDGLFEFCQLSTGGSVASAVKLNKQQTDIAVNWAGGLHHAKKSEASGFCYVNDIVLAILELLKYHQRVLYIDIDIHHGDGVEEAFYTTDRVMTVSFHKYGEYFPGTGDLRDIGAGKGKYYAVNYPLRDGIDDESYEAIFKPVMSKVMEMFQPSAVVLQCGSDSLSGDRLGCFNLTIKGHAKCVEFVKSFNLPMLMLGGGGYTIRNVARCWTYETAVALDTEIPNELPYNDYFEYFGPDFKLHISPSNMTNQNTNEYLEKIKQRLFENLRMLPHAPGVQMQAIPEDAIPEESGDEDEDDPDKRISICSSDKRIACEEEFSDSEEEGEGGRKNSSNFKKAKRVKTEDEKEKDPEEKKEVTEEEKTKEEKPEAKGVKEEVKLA
UniProt Q9UQL6, whole entry, species assumed: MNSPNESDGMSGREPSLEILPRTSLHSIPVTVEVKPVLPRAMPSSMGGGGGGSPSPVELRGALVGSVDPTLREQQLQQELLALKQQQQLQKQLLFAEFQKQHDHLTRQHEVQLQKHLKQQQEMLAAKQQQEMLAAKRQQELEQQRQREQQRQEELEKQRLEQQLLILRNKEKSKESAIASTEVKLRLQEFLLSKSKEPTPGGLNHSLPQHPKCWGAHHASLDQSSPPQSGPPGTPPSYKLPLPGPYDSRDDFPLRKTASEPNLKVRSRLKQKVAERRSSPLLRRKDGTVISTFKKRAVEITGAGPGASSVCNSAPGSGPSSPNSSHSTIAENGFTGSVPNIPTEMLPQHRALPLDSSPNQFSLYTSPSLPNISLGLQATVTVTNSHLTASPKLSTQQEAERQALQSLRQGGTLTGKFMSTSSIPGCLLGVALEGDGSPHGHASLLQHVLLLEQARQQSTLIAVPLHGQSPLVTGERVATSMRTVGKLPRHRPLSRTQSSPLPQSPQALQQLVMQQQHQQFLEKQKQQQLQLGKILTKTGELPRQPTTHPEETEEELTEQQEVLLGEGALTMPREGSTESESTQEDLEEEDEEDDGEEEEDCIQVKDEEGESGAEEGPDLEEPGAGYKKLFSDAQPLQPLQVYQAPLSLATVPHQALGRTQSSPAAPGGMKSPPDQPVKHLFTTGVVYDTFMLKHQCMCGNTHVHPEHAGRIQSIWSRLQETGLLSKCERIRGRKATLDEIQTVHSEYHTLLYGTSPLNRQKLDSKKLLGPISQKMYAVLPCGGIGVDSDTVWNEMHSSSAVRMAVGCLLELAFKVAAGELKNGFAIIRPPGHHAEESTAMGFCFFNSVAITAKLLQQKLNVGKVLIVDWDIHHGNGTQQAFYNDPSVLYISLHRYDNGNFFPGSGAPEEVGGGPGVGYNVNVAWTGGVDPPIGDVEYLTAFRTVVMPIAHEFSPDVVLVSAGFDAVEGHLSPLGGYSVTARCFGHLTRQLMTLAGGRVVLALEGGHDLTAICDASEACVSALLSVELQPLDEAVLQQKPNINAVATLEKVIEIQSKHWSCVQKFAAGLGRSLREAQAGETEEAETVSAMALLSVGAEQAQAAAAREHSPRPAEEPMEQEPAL

Experiments:
[1] = target: HDAC1 (Homo sapiens (Human), UniProt Q13547); experiment: HDAC1 inhibition; format: biochemical
[2] = target: HDAC5 (Homo sapiens (Human), UniProt Q9UQL6); experiment: HDAC5 inhibition; format: biochemical
[3] = system: MCF7 Breast Tumour Cell; experiment: MCF7 Breast Tumour Cell Proliferation Inhibition; format: cell-based; details: Homo sapiens; MCF7 cells

- IC50 [1]: 458 nM
- IC50 [2]: 458 nM
- IC50 [3]: 466 nM
Compound: O=C(CCCCCCN(c1ccccn1)c1ccccn1)NO [Example 3, 7-(Dipyridin-2-ylamino)-N-hydroxyheptanamide]
